The values that follow are results of earlier work, collected in article PMC4273976 (ACS chemical biology, 2014).

The data set has as its target EphA4. The conditions noted are these: cited from earlier work.

As for KYLPYWPVLSSL, the Kd – broadly, the constant that tells how readily two partners part at equilibrium – is around 1000 nM.
